Data from PubChem BioAssay (NCI).
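A five-concentration, 48-hour dose response in 96-well plates underlies each endpoint, interpolated linearly between surrounding concentrations. At the GI50, growth is halved. At the TGI there is no net growth.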

How the values were obtained:
Test in all cases: growth of human tumour cells (NCI), 48 h
COLO 205 colon = test system: COLO 205 colon
MDA-MB-435 = test system: MDA-MB-435
SF-295 CNS = test system: SF-295 CNS
M14 melanoma = test system: M14 melanoma
SF-268 CNS = test system: SF-268 CNS
NCI-H23 lung = test system: NCI-H23 lung
RPMI-8226 leukemia = test system: RPMI-8226 leukemia
HS 578T breast = test system: HS 578T breast
OVCAR-5 ovarian = test system: OVCAR-5 ovarian
SNB-19 CNS = test system: SNB-19 CNS
HT29 colon = test system: HT29 colon
A498 renal = test system: A498 renal
SR leukemia = test system: SR leukemia
UACC-62 melanoma = test system: UACC-62 melanoma
HOP-62 NSCLC = test system: HOP-62 NSCLC
EKVX NSCLC = test system: EKVX NSCLC
SK-MEL-2 melanoma = test system: SK-MEL-2 melanoma
MALME-3M melanoma = test system: MALME-3M melanoma
T-47D breast = test system: T-47D breast
A549 NSCLC = test system: A549 NSCLC
HOP-92 NSCLC = test system: HOP-92 NSCLC
ACHN renal = test system: ACHN renal
NCI-H226 lung = test system: NCI-H226 lung
OVCAR-8 ovarian = test system: OVCAR-8 ovarian
HCT-116 colon = test system: HCT-116 colon
MDA-MB-231 breast = test system: MDA-MB-231 breast
NCI/ADR-RES ovarian = test system: NCI/ADR-RES ovarian
MCF7 breast = test system: MCF7 breast
OVCAR-4 ovarian = test system: OVCAR-4 ovarian
NCI-H522 lung = test system: NCI-H522 lung
RXF 393 renal = test system: RXF 393 renal
NCI-H322M lung = test system: NCI-H322M lung
BT-549 breast = test system: BT-549 breast
TK-10 renal = test system: TK-10 renal
SNB-75 CNS = test system: SNB-75 CNS
LOX IMVI melanoma = test system: LOX IMVI melanoma
K-562 leukemia = test system: K-562 leukemia
MDA-N = test system: MDA-N
786-0 renal = test system: 786-0 renal
PC-3 prostate = test system: PC-3 prostate
MOLT-4 leukemia = test system: MOLT-4 leukemia
SK-MEL-5 melanoma = test system: SK-MEL-5 melanoma
HCT-15 colon = test system: HCT-15 colon
CCRF-CEM leukemia = test system: CCRF-CEM leukemia
SK-MEL-28 melanoma = test system: SK-MEL-28 melanoma
DU-145 prostate = test system: DU-145 prostate
HL-60(TB) leukemia = test system: HL-60(TB) leukemia
OVCAR-3 ovarian = test system: OVCAR-3 ovarian
IGROV1 ovarian = test system: IGROV1 ovarian
SF-539 CNS = test system: SF-539 CNS
U251 CNS = test system: U251 CNS
UACC-257 melanoma = test system: UACC-257 melanoma
UO-31 renal = test system: UO-31 renal
SN12C renal = test system: SN12C renal
CAKI-1 renal = test system: CAKI-1 renal
SK-OV-3 ovarian = test system: SK-OV-3 ovarian

## CCC1C(OC(=O)CC(O)(c2ccccc2)c2ccccc2)C2CCN1CC2 (configuration not stated)
COLO 205 colon
  GI50: 99.6 µM
  TGI: > 100 µM
MDA-MB-435
  GI50: > 100 µM
  TGI: > 100 µM
SF-295 CNS
  GI50: > 100 µM
  TGI: > 100 µM
M14 melanoma
  GI50: 26.7 µM
  TGI: > 100 µM
SF-268 CNS
  GI50: > 100 µM
  TGI: > 100 µM
NCI-H23 lung
  GI50: > 100 µM
  TGI: > 100 µM
RPMI-8226 leukemia
  GI50: > 100 µM
  TGI: > 100 µM
HS 578T breast
  GI50: > 100 µM
  TGI: > 100 µM
OVCAR-5 ovarian
  GI50: > 100 µM
  TGI: > 100 µM
SNB-19 CNS
  GI50: > 100 µM
  TGI: > 100 µM
HT29 colon
  GI50: 56.5 µM
  TGI: > 100 µM
A498 renal
  GI50: > 100 µM
  TGI: > 100 µM
SR leukemia
  GI50: 61.2 µM
  TGI: > 100 µM
UACC-62 melanoma
  GI50: > 100 µM
  TGI: > 100 µM
HOP-62 NSCLC
  GI50: > 100 µM
  TGI: > 100 µM
EKVX NSCLC
  GI50: > 100 µM
  TGI: > 100 µM
SK-MEL-2 melanoma
  GI50: > 100 µM
  TGI: > 100 µM
MALME-3M melanoma
  GI50: > 100 µM
  TGI: > 100 µM
T-47D breast
  GI50: > 100 µM
  TGI: > 100 µM
A549 NSCLC
  GI50: > 100 µM
  TGI: > 100 µM
HOP-92 NSCLC
  GI50: 25.9 µM
  TGI: > 100 µM
ACHN renal
  GI50: > 100 µM
  TGI: > 100 µM
NCI-H226 lung
  GI50: > 100 µM
  TGI: > 100 µM
OVCAR-8 ovarian
  GI50: > 100 µM
  TGI: > 100 µM
HCT-116 colon
  GI50: > 100 µM
  TGI: > 100 µM
MDA-MB-231 breast
  GI50: 62.6 µM
  TGI: > 100 µM
NCI/ADR-RES ovarian
  GI50: > 100 µM
  TGI: > 100 µM
MCF7 breast
  GI50: > 100 µM
  TGI: > 100 µM
OVCAR-4 ovarian
  GI50: > 100 µM
  TGI: > 100 µM
NCI-H522 lung
  GI50: > 100 µM
  TGI: > 100 µM
RXF 393 renal
  GI50: 50.9 µM
  TGI: > 100 µM
NCI-H322M lung
  GI50: > 100 µM
  TGI: > 100 µM
BT-549 breast
  GI50: > 100 µM
  TGI: > 100 µM
TK-10 renal
  GI50: 57.4 µM
  TGI: > 100 µM
SNB-75 CNS
  GI50: 71.1 µM
  TGI: > 100 µM
LOX IMVI melanoma
  GI50: 23.7 µM
  TGI: > 100 µM
K-562 leukemia
  GI50: 83.9 µM
  TGI: > 100 µM
MDA-N
  GI50: > 100 µM
  TGI: > 100 µM
786-0 renal
  GI50: > 100 µM
  TGI: > 100 µM
PC-3 prostate
  GI50: 80.5 µM
  TGI: > 100 µM
MOLT-4 leukemia
  GI50: 53.6 µM
  TGI: > 100 µM
SK-MEL-5 melanoma
  GI50: 33.3 µM
  TGI: > 100 µM
HCT-15 colon
  GI50: > 100 µM
  TGI: > 100 µM
CCRF-CEM leukemia
  GI50: > 100 µM
  TGI: > 100 µM
SK-MEL-28 melanoma
  GI50: > 100 µM
  TGI: > 100 µM
DU-145 prostate
  GI50: > 100 µM
  TGI: > 100 µM
HL-60(TB) leukemia
  GI50: 45.6 µM
  TGI: > 100 µM
OVCAR-3 ovarian
  GI50: > 100 µM
  TGI: > 100 µM
IGROV1 ovarian
  GI50: > 100 µM
  TGI: > 100 µM
SF-539 CNS
  GI50: > 100 µM
  TGI: > 100 µM
U251 CNS
  GI50: > 100 µM
  TGI: > 100 µM
UACC-257 melanoma
  GI50: 27.8 µM
  TGI: 83.5 µM
UO-31 renal
  GI50: 94.4 µM
  TGI: > 100 µM
SN12C renal
  GI50: > 100 µM
  TGI: > 100 µM
CAKI-1 renal
  GI50: > 100 µM
  TGI: > 100 µM
SK-OV-3 ovarian
  GI50: > 100 µM
  TGI: > 100 µM
